Source: ChEMBL document CHEMBL4428135, “Varying Chirality Across Nicotinic Acetylcholine Receptor Subtypes: Selective Binding of Quinuclidine Triazole Compounds” (ACS Med Chem Lett, 2016)

Protein sequences, listed by entry. Tags and fused reporters are not part of them.
UniProt P30926, whole entry: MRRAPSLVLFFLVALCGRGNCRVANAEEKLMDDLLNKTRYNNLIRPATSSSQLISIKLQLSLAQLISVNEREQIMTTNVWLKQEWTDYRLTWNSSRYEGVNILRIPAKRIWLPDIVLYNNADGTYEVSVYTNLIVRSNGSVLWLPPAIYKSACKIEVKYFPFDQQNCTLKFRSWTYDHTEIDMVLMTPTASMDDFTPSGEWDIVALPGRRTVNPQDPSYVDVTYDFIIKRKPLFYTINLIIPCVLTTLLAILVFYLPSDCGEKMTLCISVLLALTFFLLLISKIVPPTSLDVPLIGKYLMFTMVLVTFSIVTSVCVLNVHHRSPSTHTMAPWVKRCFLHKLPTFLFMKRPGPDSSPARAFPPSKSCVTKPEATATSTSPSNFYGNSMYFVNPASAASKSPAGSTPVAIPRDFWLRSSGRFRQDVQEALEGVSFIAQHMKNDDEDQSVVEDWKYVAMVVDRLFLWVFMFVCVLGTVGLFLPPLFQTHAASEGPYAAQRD
UniProt P32297, whole entry: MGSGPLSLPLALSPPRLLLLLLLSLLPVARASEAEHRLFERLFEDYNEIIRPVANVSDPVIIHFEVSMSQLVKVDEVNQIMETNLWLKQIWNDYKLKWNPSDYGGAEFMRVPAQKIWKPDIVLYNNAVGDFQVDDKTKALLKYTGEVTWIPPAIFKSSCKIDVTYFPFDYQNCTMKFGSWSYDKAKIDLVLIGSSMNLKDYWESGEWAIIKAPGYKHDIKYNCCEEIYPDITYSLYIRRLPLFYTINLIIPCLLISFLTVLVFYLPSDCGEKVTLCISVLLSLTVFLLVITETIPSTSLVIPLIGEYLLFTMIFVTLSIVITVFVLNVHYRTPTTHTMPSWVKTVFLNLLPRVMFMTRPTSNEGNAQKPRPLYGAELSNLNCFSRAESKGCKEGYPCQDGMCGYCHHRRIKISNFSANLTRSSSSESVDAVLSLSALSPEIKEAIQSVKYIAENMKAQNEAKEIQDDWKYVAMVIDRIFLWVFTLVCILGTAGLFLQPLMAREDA

Biological target: Neuronal acetylcholine receptor; alpha3/beta4 (Homo sapiens, UniProt P30926+P32297)

SMILES: CN1C2CCCC1CC(Nc1ccccc1Br)C2 (stereo unspecified)
- Ki: 2.64 nM
